Patent US8946302B2, “Selective sigma-1 receptor ligands” (Wisconsin Alumni Research Foundation, priority 2008, dated 2015)

Chains of the proteins cited; added tags and fusions are not shown.
UniProt Q60492, whole entry: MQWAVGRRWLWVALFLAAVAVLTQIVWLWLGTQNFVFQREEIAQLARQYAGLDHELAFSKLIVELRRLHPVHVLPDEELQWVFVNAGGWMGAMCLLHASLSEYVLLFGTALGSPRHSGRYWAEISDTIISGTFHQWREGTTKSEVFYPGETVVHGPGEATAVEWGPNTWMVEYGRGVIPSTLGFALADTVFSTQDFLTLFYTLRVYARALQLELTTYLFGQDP

The molecules below were run against T1, σ-1 Sites (Cavia porcellus, UniProt Q60492) (assay: σ-1 sites radioligand binding, guinea pig liver membranes (Table 2)). Conditions: σ-2 rat liver / σ-1 guinea pig liver membranes.
T1 construct: from tissue

SMILES | σ-1 selectivity σ-2 Ki/σ-1 Ki
CCCCCCCCCCCCNCCCc1ccccc1 [Compound 1e, N-(3-Phenylpropyl)dodecan-1-amine] | 0.4
CCCCCCCNCCCc1ccccc1 [Compound 1c, N-(3-Phenylpropyl)heptane-1-amine] | 2
CCCCCCCCCCCCNCCCc1ccc([N+](=O)[O-])cc1 [Compound 1f, N-(3-(4-Nitrophenyl)propyl)dodecan-1-amine] | 0.4
